{"sequences": {"note": "Amino acid sequences for entries named in this document (tags omitted).", "UniProt Q04609, whole entry": "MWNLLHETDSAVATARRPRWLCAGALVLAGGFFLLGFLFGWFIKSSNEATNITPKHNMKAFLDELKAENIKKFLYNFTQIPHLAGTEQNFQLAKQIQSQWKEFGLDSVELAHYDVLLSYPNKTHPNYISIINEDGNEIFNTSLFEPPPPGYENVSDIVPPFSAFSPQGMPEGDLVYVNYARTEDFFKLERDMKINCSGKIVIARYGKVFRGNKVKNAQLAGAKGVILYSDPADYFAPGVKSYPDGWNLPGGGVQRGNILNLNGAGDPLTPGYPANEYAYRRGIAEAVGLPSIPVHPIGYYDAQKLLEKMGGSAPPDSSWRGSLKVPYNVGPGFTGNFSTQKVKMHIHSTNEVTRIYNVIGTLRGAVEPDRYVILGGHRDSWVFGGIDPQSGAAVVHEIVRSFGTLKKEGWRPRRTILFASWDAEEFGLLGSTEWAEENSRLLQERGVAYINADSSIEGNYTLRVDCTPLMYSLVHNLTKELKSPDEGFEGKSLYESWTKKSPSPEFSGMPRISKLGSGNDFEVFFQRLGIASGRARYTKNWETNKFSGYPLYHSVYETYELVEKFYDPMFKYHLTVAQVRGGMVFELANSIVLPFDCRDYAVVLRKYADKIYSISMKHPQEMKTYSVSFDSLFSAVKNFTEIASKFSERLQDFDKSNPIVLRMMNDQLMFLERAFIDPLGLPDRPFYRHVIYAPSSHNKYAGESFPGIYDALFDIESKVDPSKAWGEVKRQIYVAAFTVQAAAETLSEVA"}, "source": "patent US20220024882A1", "about": "“NOVEL TUMOR ANTIGEN BINDING AGENTS AND USES THEREOF” (ITM Isotopen Technologien München AG, priority 2018, published 2022)", "key": {"[1]": {"test_system": "PSMA-positive PC-3 PIP tumor-bearing mice", "details": "earlier therapy study, tested as the radiolabelled form, cited from earlier work"}, "PSMA": {"target": "PSMA (Homo sapiens, UniProt Q04609)", "assay": "Determination of KD values (PSMA-binding affinity)", "details": "PSMA-binding affinity of the 177Lu radioligand; tested as the radiolabelled form"}, "[2]": {"details": "previously obtained (Umbricht et al.), tested as the radiolabelled form; cited from earlier work"}}, "note": "Several values for one entry are separate records, joined by “and”; a condition that tells them apart may be missing. Equal entries are not always repeated. Where two headings read alike, the source gives them in different places."}
{"compound": "Cc1ccc(CCCC(=O)NCCCC[C@H](NC(=O)CN2CCN(CC(=O)O)CCN(CC(=O)O)CCN(CC(=O)O)CC2)C(=O)NCC2CCC(C(=O)N[C@@H](Cc3ccc4ccccc4c3)C(=O)NCCCC[C@H](NC(=O)N[C@@H](CCC(=O)O)C(=O)O)C(=O)O)CC2)cc1", "note": "(stereo partly drawn)", "values": [{"measurement": "TGDI5 (tumor growth delay index, 5-fold increase of tumor size)", "setting": "[1]; 2 MBq per mouse", "result": "1.8 and 1.8 ± 0.5"}, {"measurement": "mice of the group in which the tumors disappeared entirely", "setting": "[1]; 5 MBq per mouse, n=6", "result": "four"}, {"measurement": "mice still alive at the end of the study at Day 84", "setting": "[1]; 5 MBq per mouse, n=6", "result": "four"}, {"measurement": "TGDI5 (tumor growth delay index, 5-fold increase of tumor size)", "setting": "[1]; 5 MBq per mouse", "result": "not defined"}, {"measurement": "average relative body weight at the time of euthanasia", "setting": "[1]; 5 MBq per mouse", "result": "1.20±0.14"}, {"measurement": "day on which the two mice with tumor regrowth reached the endpoint", "setting": "[1]; 5 MBq per mouse", "result": "58 days and 68 days"}, {"measurement": "median survival", "setting": "[1]; 5 MBq per mouse", "result": "undefined"}, {"measurement": "Kd", "setting": "PSMA", "result": 30, "unit": "nM"}, {"measurement": "n-octanol/PBS distribution coefficient (log D value)", "setting": "[2]", "result": -2.9}]}
